# Reported fraction unbound values for industrial, environmental and drug-like chemicals

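These are experimental values that the OPERA curators gathered from public databases to train and test their QSAR models. The files give a single number for a compound and property, which may rest on several reports. Method, purity and exact conditions of the single measurements are not given. The measured form (salt, isomer or mixture) is not always the one drawn. Some upstream entries may be estimates or bounds without being marked so.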

The unbound fraction in human plasma runs from 0 (all bound) to 1 (all free).
"n/a" marks a cell with nothing listed here.

| fraction unbound | compound | name |
|---|---|---|
| 0.1057 | CCOC(=O)c1ccc(O)cc1 | Ethylparaben |
| 0.488 | CC[N+](CC)(CC(=O)Nc1c(C)cccc1C)Cc1ccccc1.O=C1[N-]S(=O)(=O)c2ccccc21 | Denatonium saccharide |
| 0.0125 | COc1cc(C2c3cc4c(cc3C(OC3OC5COC(C)OC5C(O)C3N(C)C)C3COC(=O)C23)OCO4)cc(OC)c1O.Cl (configuration not stated) | NK 611 |
| 0.02 | NS(=O)(=O)c1ccc(S(=O)(=O)Nc2cccc3c(Cl)c[nH]c23)cc1 | Indisulam |
| 0.024 | O=c1[nH]c(-c2ccc(C(F)(F)F)cc2)nc2c1CSCC2 | n/a |
| 0.004899 | CC(C(=O)O)c1ccc2oc(-c3ccc(Cl)cc3)nc2c1 (configuration not stated) | Benoxaprofen |
| 0.02 | CC(C)(Oc1ccc(Cl)cc1)C(=O)O | Clofibric acid |
| 0.1899 | O=C(O)c1ccccc1-c1c2ccc(=O)cc-2oc2cc(O)ccc12 | n/a |
| 0.2 | CC(=O)O[C@H]1C[C@H](O[C@H]2[C@@H](O)C[C@H](O[C@H]3[C@@H](O)C[C@H](O[C@H]4CC[C@@]5(C)[C@H](CC[C@H]6[C@H]5CC[C@]5(C)[C@@H](C7=CC(=O)OC7)CC[C@]65O)C4)O[C@@H]3C)O[C@@H]2C)O[C@H](C)[C@H]1O | Acetyldigitoxin |
| 0.5 | Cc1ccc(C(=CCN2CCCC2)c2cccc(/C=C/C(=O)O)n2)cc1 | Acrivastine |
| 0.1825 | Cc1[n]c([s]c1CC(O)=O)SCC1CS[C@@H]2[C@H](NC(=O)/C(=NOC)/c3c[s]c(N)[n]3)C(=O)N2C=1C(O)=O | n/a |
| 0.5193 | COc1ccc(CC2c3cc(OC)c(OC)cc3CC[N+]2(C)CCC(=O)OCCCCCOC(=O)CC[N+]2(C)CCc3cc(OC)c(OC)cc3C2Cc2ccc(OC)c(OC)c2)cc1OC (configuration not stated) | Atrcurium |
| 0.06 | CSc1ccc(/C=C2/C(C)=C(CC(=O)O)c3cc(F)ccc32)cc1 | Sulindac sulfide |
| 0.03126 | CCCCC(CC)COC(=O)CCCCCCCC(=O)OCC(CC)CCCC (configuration not stated) | Bis(2-ethylhexyl) nonanedioate |
| 0.65 | COc1ccc2cc1Oc1cc3c(cc1OC)CC[N+](C)(C)[C@H]3Cc1ccc(cc1)Oc1c(OC)c(OC)cc3c1[C@@H](C2)[N+](C)(C)CC3 | Dimethyltubocurarine |
| 0.86 | CC1(C)S[C@@H]2[C@H](/N=C/N3CCCCCC3)C(=O)N2[C@H]1C(=O)O | Amdinocillin |
| 0.18 | CCC(=O)NCCC1CCc2ccc3c(c21)CCO3 (configuration not stated) | Ramelteon |
| 0.895 | NCC[C@H](O)C(=O)N[C@@H]1C[C@H](N)[C@@H](O[C@H]2O[C@H](CN)[C@@H](O)[C@H](O)[C@H]2O)[C@H](O)[C@H]1O[C@H]1O[C@H](CO)[C@@H](O)[C@H](N)[C@H]1O | Amikacin |
| 0.14 | COC(=O)N[C@H](C(=O)N[C@@H](Cc1ccccc1)[C@@H](O)CN(Cc1ccc(-c2ccccn2)cc1)NC(=O)[C@@H](NC(=O)OC)C(C)(C)C)C(C)(C)C | Atazanavir |
| 0.85 | CCCN[C@H]1CCc2nc(N)sc2C1 | Pramipexole |
| 0.02 | CN(c1nccc(=O)[nH]1)C1CCN(c2nc3ccccc3n2Cc2ccc(F)cc2)CC1 | Mizolastine |
| 0.03583 | CC[C@H](C)C[C@H](C)CCCCCCCCC(=O)N[C@H]1C[C@@H](O)[C@H](NCCN)NC(=O)[C@@H]2[C@@H](O)CCN2C(=O)[C@H]([C@H](O)CCN)NC(=O)C([C@H](O)[C@@H](O)c2ccc(O)cc2)NC(=O)[C@@H]2C[C@@H](O)CN2C(=O)C([C@@H](C)O)NC1=O (stereo partly specified) | Caspofungin |
| 0.08531 | COc1ccc2ncc(=O)n(CCN3CC[C@H](NCc4ccc5c(n4)NC(=O)CO5)[C@H](O)C3)c2c1 | n/a |
| 0.7 | CN(C)CC(c1ccc(O)cc1)C1(O)CCCCC1 (configuration not stated) | O-Desmethyl Venlafaxine |
| 0.5 | COc1cc2c(cc1OC)CN(C(=O)[C@H](C)N[C@@H](CCc1ccccc1)C(=O)O)[C@H](C(=O)O)C2 | Moexiprilat |
| 0.25 | CC(Oc1ccccc1)C(=O)N[C@@H]1C(=O)N2[C@@H]1SC(C)(C)[C@@H]2C(=O)O (stereo partly drawn) | Phenethicillin |
| 0.985 | CC(C)[C@H](N)C(=O)OCC(CO)OCn1cnc2c(=O)nc(N)[nH]c21 (stereo partly drawn) | Valganciclovir |
| 0.165 | CCCCOc1ccc(N)cc1 | 4-butyloxyaniline |
| 0.27 | CN1CCOC(c2ccccc2)c2ccccc2C1 (configuration not stated) | Nefopam |
| 0.37 | OC(CCN1CCCCC1)(C1CCCCC1)c1ccccc1 (configuration not stated) | n/a |
| 0.00695 | CCCCCCc1ccc(N)cc1 | n/a |
| 0.98 | N=C(N)NCCC[C@H](NC(=O)[C@@H]1CCCN1C(=O)[C@@H]1CSSC[C@H](N)C(=O)N[C@@H](Cc2ccc(O)cc2)C(=O)N[C@@H](Cc2ccccc2)C(=O)N[C@@H](CCC(N)=O)C(=O)N[C@@H](CC(N)=O)C(=O)N1)C(=O)NCC(N)=O | Argipressin |
| 0.27 | CCCCC[C@H](O)/C=C/[C@H]1[C@H](O)CC(=O)[C@@H]1CC=CCCCC(=O)O | Dinoprostone |
| 0.7 | O=C[C@H](O)[C@@H](O)[C@H](O)[C@H](O)CO | D-Glucose |
| 0.01117 | COC(=O)C1=C(C#N)NC(C)=C(C(=O)OC(C)C)C1c1cccc([N+](=O)[O-])c1 (configuration not stated) | Nilvadipine |
| 0.3837 | CO[C@@H]1CN(CCn2c(=O)ccc3ccc(C#N)cc32)CC[C@H]1NCc1ccc2c(n1)NC(=O)CO2 | n/a |
| 0.5 | Nc1nc(NC2CC2)c2ncn([C@@H]3C=C[C@@H](CO)C3)c2n1 | Abacavir |
| 0.92 | C[C@@H](O)[C@H]1C(=O)N2C(C(=O)[O-])=C(SC3Cn4cnc[n+]4C3)[C@H](C)[C@H]12 (stereo partly drawn) | Biapenem |
| 0.04 | C#C[C@]1(O)CC[C@H]2[C@@H]3CCC4=CCCC[C@@H]4[C@H]3CC[C@@]21C | Lynestrenol |
| 0.6 | CC(=O)OCC(=O)[C@@]12N=C(C)O[C@@H]1C[C@H]1[C@@H]3CCC4=CC(=O)C=C[C@]4(C)[C@H]3[C@@H](O)C[C@@]12C | Deflazacort |
| 0.07672 | Fc1ccc([C@@H]2CCNC[C@H]2COc2ccc3c(c2)OCO3)cc1 | Paroxetine |
| 0.3 | CCCS(=O)c1ccc2[nH]c(NC(=O)OC)nc2c1 (configuration not stated) | Albendazole oxide |
| 0.00183 | Cc1c(C2(c3cc(Br)c(O)c(Br)c3C)OS(=O)(=O)c3ccccc32)cc(Br)c(O)c1Br | Bromcresol green |
| 0.8251 | C1CCOC1 | Tetrahydrofuran |
| 0.28 | CN(C)CCC(c1ccc(Br)cc1)c1ccccn1 (configuration not stated) | Brompheniramine |
| 0.045 | COc1cc(NCc2ccc3nc(N)nc(N)c3c2C)cc(OC)c1OC | Trimetrexate |
| 0.0414 | C[C@@H](Oc1ccc(CNC(=O)c2cccnc2Oc2ccc3c(c2)OCO3)c(F)c1)C(=O)O | n/a |
| 0.23 | Cc1nc2n(c(=O)c1CCN1CCC(c3noc4cc(F)ccc34)CC1)CCC[C@H]2O | Paliperidone |
| 0.08 | CCOC(=O)c1c(N)sc2c1CCN(Cc1ccccc1)C2 | Tinoridine |
| 0.775 | CC[C@H]1OC(=O)[C@H](C)[C@@H](O[C@H]2C[C@@](C)(OC)[C@@H](O)[C@H](C)O2)[C@H](C)[C@@H](O[C@@H]2O[C@H](C)C[C@H](N(C)C)[C@H]2O)[C@](C)(O)C[C@@H](C)[C@@H]2N[C@@H](COCCOC)O[C@@H]([C@H]2C)[C@]1(C)O | Dirithromycin |
| 0.4 | CCC[C@H](N[C@@H](C)C(=O)N1[C@H](C(=O)O)C[C@@H]2CCCC[C@@H]21)C(=O)OCC | Perindopril |
| 0.97 | Nc1ccn([C@H]2CC[C@@H](CO)O2)c(=O)n1 | 2',3'-Dideoxycytidine |
| 0.009127 | CCC[C@@H](c1ccc(C(=O)O)c(Oc2cccc(Cl)c2)c1)N1CCC[C@H](n2cc(C)c(=O)[nH]c2=O)C1 | n/a |
| 0.69 | Nc1ncnc2c1ncn2[C@@H]1O[C@H](CO)[C@@H](O)[C@@H]1O | Adenine 9-beta-D-arabinofuranoside |
| 0.1 | COC1=C(OC)C(=O)C(CCCCCCCCCCO)=C(C)C1=O | Idebenone |
| 0.21 | CCC(Cc1c(I)cc(I)c(N)c1I)C(=O)O (configuration not stated) | Iopanoic acid |

From the experimental data distributed with OPERA 2.9.